# In PubChem BioAssay AID602449 (Sanford-Burnham Center for Chemical Genomics, 2012):
# The list shows a part of the results, in another mix than the full data. Some tests of the compounds listed are not included; inactive here does not mean inactive elsewhere. The source made the active and inactive calls.
# Experiment: blockers of Ca2+-induced mitochondrial swelling – biochemical, isolated mouse mitochondria, absorbance, primary screen (AID 602449);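 note: 0% = DMSO wells given calcium and 100% = 1 mM EGTA wells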
# Settings: 30 min, at 10 µM, active compounds read high
row,Structure (SMILES),inhibition
1,Cc1ccccc1C(=O)NCC1(N2CCCCC2)CCCCC1,inactive: 1.4%
2,CN(C)C1CCCC1OC(=O)C(O)(c1ccccc1)c1ccccc1 (stereo unspecified),inactive: -1.8%
3,CN(C)c1ccc(C(=O)NCC2(N(C)C)CCCCC2)cc1,inactive: -0.5%
4,C=CCN1CCN(CCOC(=O)C(O)(c2ccccc2)c2ccccc2)CC1,inactive: -1.4%
5,O=C(NCC1(N2CCCCC2)CCCCC1)c1cc(F)c(F)cc1Cl,inactive: 1.9%
6,Cc1cc(C(=O)NCC2(N3CCCCC3)CCCCC2)ccc1[N+](=O)[O-],inactive: -0.8%
7,CCN1CCCC(OC(=O)C2(O)c3ccccc3C=Cc3ccccc32)C1 (stereo unspecified),inactive: 0.5%
8,O=C(NCC1(N2CCCCC2)CCCCC1)c1cccc(Br)c1,inactive: -0.5%
9,COc1ccc(C(=O)NCC2(N(C)C)CCCCC2)cc1,inactive: -1.3%
10,O=C(NCC1(N2CCCCC2)CCCCC1)c1cc([N+](=O)[O-])ccc1Cl,inactive: -0.9%
11,CN1[C@@H]2CC[C@H]1CC(OC(=O)C(O)(c1ccccc1)c1ccccc1)C2 (stereo partly specified),inactive: -0.8%
12,CC(C)N1C(=O)CC2(CCN(CCOC(=O)C(O)(c3ccccc3)c3ccccc3)CC2)C1=O,inactive: -0.3%
13,CCN(CC)CC(C)C(C)OC(=O)C(O)(c1ccccc1)c1ccccc1 (stereo unspecified),inactive: 0.1%
14,COc1cc(SC)ccc1C(=O)NCC1(N(C)C)CCCCC1,inactive: 0%
15,Cc1ccc(C(=O)NCC2(N3CCCCC3)CCCCC2)cc1,inactive: -0.6%
16,O=C(OC1CN2CCC1CC2)C(CO)(c1ccccc1)c1ccccc1 (stereo unspecified),inactive: -0.7%
17,COc1ccc(Br)c(C(=O)NCC2(N3CCCCC3)CCCCC2)c1,inactive: 0.7%
18,C=C(C)C#CC(O)(C(=O)OC1CCN(C)CC1)c1ccccc1 (stereo unspecified),inactive: -1.5%
19,CN(C)c1cccc(C(=O)NCC2(N(C)C)CCCCC2)c1,inactive: -1.2%
20,CC(C)Oc1ccc(C(=O)NCC2(N(C)C)CCCCC2)cc1,inactive: 0.6%
21,O=C(OCCN1CCCC1)C(O)(c1ccccc1)c1ccccc1,inactive: 0.1%
22,CN(C)C1(CNC(=O)c2ccc(Br)cc2)CCCCC1,inactive: -0.4%
23,COc1cc(C(=O)NCC2(N(C)C)CCCCC2)c([N+](=O)[O-])cc1OC,inactive: -1.2%
24,COc1cccc(C(=O)NCC2(N3CCCCC3)CCCCC2)c1,inactive: -0.7%
25,COc1ccc(Cl)cc1C(=O)NCC1(N(C)C)CCCCC1,inactive: -1.2%
26,O=C(NCC1(N2CCCCC2)CCCCC1)c1cccc(Cl)c1,inactive: -0.1%
